Results reported in patent US20260070887A1 (Shenzhen Zhongge Biological Technology Co., Ltd., priority 2022, published 2026).

Amino acid sequences for entries named in this document (tags omitted).
UniProt Q8NI77, whole entry: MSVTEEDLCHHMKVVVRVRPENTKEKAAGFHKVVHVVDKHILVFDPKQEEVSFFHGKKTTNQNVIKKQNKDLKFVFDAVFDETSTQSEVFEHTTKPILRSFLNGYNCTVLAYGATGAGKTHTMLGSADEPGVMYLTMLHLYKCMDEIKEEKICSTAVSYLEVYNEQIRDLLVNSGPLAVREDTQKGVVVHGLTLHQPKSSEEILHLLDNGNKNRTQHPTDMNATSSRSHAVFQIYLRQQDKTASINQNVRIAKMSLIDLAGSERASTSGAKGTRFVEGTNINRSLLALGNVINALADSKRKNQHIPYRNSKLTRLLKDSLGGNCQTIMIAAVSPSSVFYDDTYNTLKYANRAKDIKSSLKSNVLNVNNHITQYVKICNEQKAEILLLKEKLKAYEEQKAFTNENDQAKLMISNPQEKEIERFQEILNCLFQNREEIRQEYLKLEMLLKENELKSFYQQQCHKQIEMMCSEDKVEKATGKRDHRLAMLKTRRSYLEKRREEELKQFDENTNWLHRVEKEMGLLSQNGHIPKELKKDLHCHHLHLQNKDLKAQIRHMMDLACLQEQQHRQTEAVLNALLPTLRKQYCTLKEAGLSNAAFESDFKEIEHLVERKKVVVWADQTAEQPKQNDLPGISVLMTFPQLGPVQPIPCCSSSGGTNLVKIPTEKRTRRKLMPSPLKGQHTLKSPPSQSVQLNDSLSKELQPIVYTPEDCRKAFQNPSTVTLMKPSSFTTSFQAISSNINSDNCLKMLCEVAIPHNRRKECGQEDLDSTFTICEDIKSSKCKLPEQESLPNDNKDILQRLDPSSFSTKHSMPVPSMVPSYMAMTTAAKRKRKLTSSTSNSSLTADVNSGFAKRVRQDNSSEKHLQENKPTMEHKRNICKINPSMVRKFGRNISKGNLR
UniProt P02550, whole entry partner: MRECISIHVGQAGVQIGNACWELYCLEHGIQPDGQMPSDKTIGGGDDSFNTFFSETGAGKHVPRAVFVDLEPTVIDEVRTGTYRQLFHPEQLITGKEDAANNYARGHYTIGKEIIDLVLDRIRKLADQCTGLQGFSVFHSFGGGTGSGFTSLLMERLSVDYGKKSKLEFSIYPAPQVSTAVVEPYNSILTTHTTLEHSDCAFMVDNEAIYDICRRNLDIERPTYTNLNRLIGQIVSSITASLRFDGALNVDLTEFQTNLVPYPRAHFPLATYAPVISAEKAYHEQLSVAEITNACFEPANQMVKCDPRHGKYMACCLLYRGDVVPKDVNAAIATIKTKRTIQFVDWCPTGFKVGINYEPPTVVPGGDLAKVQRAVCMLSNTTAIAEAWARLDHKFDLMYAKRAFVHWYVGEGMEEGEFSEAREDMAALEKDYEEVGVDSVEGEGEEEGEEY
UniProt P02554, whole entry partner: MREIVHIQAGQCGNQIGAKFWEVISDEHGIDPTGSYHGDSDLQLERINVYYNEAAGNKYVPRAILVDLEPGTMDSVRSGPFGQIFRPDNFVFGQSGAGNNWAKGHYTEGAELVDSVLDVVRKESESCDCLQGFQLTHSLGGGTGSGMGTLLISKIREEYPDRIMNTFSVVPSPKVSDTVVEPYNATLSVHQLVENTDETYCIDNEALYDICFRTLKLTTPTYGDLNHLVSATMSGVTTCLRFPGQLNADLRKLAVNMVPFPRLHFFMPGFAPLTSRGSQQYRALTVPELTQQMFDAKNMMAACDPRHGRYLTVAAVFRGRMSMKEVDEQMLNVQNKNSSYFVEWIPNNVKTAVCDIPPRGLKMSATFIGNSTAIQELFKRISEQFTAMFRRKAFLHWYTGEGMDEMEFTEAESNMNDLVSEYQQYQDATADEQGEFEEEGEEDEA

Assays:
KIF18A = KIF18A (Homo sapiens (Human), UniProt Q8NI77); test: KIF18A ATPase activity under tubulin stimulation (ADP-Glo assay); details: read-out: ADP-Glo IC50; KIF18A 30 nM, ATP 150 μM, pig microtubules
Protocol: This experiment assesses the inhibitory effect of the compounds of the present disclosure on the KIF18A target according to the IC50 values by measuring the KIF18A ATPase activity under tubulin stimulation with the presence of the compounds.
• 1. Preparation of 30 mL of reaction buffer: • (1) 450 μL 1M Tris-HCl (pH=7.5)+300 μL 1M MgCl2+30 μL 10% Pluronic F-68 (ThermoFisher, 24040032-100 ml); • (2) adjusting pH to 7.5, and adding water to adjust the volume to 30 mL. • 2. Preparation of a 5 mg/mL pig microtubule (Microtubules; MT) (Cytoskeleton Inc, MT002) stock solution: • (1) 10 mL PM buffer=150 μL 1 M PIPES (pH 7.0)+20 μL 0.5 mM MgCl2+100 μL 2 mM Taxol (Cytoskeleton Inc, TXD01)+9730 μL water. • (2) MT ([…]): Adding 100 μL PM buffer to prepare a 5 mg/mL stock solution. Keeping the MT (Cytoskeleton Inc, MT002) at room temperature for 10-15 minutes, gently mixing and storing same at −80° C. • 3. Preparation of 2 mL of kinase buffer: 2 mL reaction buffer+1 μL 2 mM Taxol (Cytoskeleton Inc, TXD01)+12 μL 5 mg/mL MT (Cytoskeleton Inc, MT002). • 4. Preparation of 2×KIF18A (30 nM) (ChemPartner, CPB-P22-31645) working solution: 2.4 μL 10 μM KIF18A (ChemPartner, CPB-P22-31645)+800 μL 1× kinase buffer. • 5. […] Luminescence values were measured using the EnVision Xcite Multilabel Reader (PerkinElmer, 2105-0020).

OVCAR-3 cells = test: OVCAR-3 cell proliferation (Cell Titer-Glo, 10 days); details: read-out: OVCAR-3 IC50
Protocol: The inhibitory effect on the KIF18A target by the compounds of the present disclosure was evaluated by testing the inhibitory effect on proliferation of OVCAR-3 cells by the compounds of the present disclosure.
The following method was used to determine the effect of the compounds of the present disclosure on the proliferation of human ovarian cancer cells Ovcar-3 (HTB-161, ATCC). Cells were cultured in RPMI-1640 complete medium containing 20% fetal bovine serum, 0.01 mg/mL bovine insulin, 100 U penicillin, and 100 μg/mL streptomycin. The Promega kit Cell Titer-Glo (Cat. No. G7572) was used in this method for test.
For specific steps, reference was made to the kit instructions, and the procedure was outlined below: Test compounds were dissolved in DMSO to prepare a 10 mM stock solution, which was diluted at the predetermined test concentrations, and the test compounds at different concentrations were added to a 384-well cell test plate using ECHO. […] The luminescence values for samples in various wells were read using a microplate reader in Luminescence mode.
The percentage of inhibition of cell proliferation by the test compound at each concentration was calculated by comparing with the values of the control group (0.1% DMSO). […]

SMILES | IC50 (KIF18A) [nM] | IC50 (OVCAR-3 cells) [nM]
CC1OCCn2c1cc1c(NC(=O)c3ccc(NS(=O)(=O)CCO)cc3N3CCC(=C(F)F)CC3)cccc12 (single isomer, unassigned) [320-P1] | 500 to 5000 | –
CC1OCCn2c1cc1c(NC(=O)c3ccc(NS(=O)(=O)CCO)cc3N3CCC(=C(F)F)CC3)cccc12 (single isomer, unassigned) [320-P2] | < 50 | < 50
